Activity calls are given as the source filed them.
Legend:
[1] = biological target: T1, von Hippel-Lindau disease tumor suppressor/Epidermal growth factor receptor (Homo sapiens, UniProt P00533+P40337); assay: PROTAC activity at VHL/wild type EGFR overexpressed in human OVCAR-8 cells assessed as EGFR degradation upto 10000 nM treated after 8 hrs under serum starvation condition and preincubated with pictilisib for 2 hrs measured after 16 hrs of compound addition by Western blotting analysis; type: cell-based
[2] = biological target: T1, von Hippel-Lindau disease tumor suppressor/Epidermal growth factor receptor; assay: PROTAC activity at VHL/wild type EGFR overexpressed in human OVCAR-8 cells assessed as EGFR degradation upto 10000 nM treated after 8 hrs under serum starvation condition and preincubated with 1 to 5 uM pictilisib for 2 hrs measured after 16 hrs of compound addition by Western blotting analysis; type: cell-based
[3] = system: von Hippel-Lindau disease tumor suppressor/Epidermal growth factor receptor (Homo sapiens), P00533+P40337 [UNDEFINED MUTATION]; assay: Binding affinity to VHL/EGFR mutant in human HCC827 cell lysate assessed as ternary complex formation by measuring EGFR pulldown at 100 nM measured after 16 hrs by VHL antibody based co-immunoprecipitation assay; type: subcellular
[4] = biological target: T1, von Hippel-Lindau disease tumor suppressor/Epidermal growth factor receptor; assay: Binding affinity to VHL/wild type EGFR in human OVCAR-8 cell lysate assessed as ternary complex formation by measuring VHL pulldown at 1 uM pretreated with pictilisib for 2 hrs followed by compound addition measured after 16 hrs by EGFR antibody based co-immunoprecipitation assay; type: subcellular
[5] = biological target: T1, von Hippel-Lindau disease tumor suppressor/Epidermal growth factor receptor; assay: Binding affinity to VHL/wild type EGFR in human NCI-H1299 cell lysate assessed as ternary complex formation by measuring VHL pulldown at 1 uM pretreated with pictilisib for 2 hrs followed by compound addition measured after 16 hrs by EGFR antibody based co-immunoprecipitation assay; type: subcellular
[6] = biological target: T1, von Hippel-Lindau disease tumor suppressor/Epidermal growth factor receptor; assay: Binding affinity to VHL/wild type EGFR in human OVCAR-8 cell lysate assessed as ternary complex formation by measuring EGFR pulldown at 1 uM pretreated with pictilisib for 2 hrs followed by compound addition measured after 16 hrs by VHL antibody based co-immunoprecipitation assay; type: subcellular
[7] = biological target: T1, von Hippel-Lindau disease tumor suppressor/Epidermal growth factor receptor; assay: Binding affinity to VHL/wild type EGFR in human NCI-H1299 cell lysate assessed as ternary complex formation by measuring EGFR pulldown at 1 uM pretreated with pictilisib for 2 hrs followed by compound addition measured after 16 hrs by VHL antibody based co-immunoprecipitation assay; type: subcellular
[8] = biological target: T2, Protein cereblon/Epidermal growth factor receptor (Homo sapiens) (UniProt P00533+Q96SW2); assay: PROTAC activity at CRBN/wild type EGFR overexpressed in human OVCAR-8 cells assessed as EGFR degradation upto 10000 nM treated after 8 hrs under serum starvation condition and preincubated with 1 to 5 uM pictilisib measured for 2 hrs after 16 hrs of compound addition by Western blotting analysis; type: cell-based
[9] = system: Protein cereblon/Epidermal growth factor receptor (Homo sapiens), P00533+Q96SW2 [UNDEFINED MUTATION]; assay: Binding affinity to CRBN/EGFR mutant in human HCC827 cell lysate assessed as ternary complex formation by measuring EGFR pulldown at 100 nM measured after 16 hrs by CRBN antibody based co-immunoprecipitation assay; type: subcellular
[10] = biological target: T2, Protein cereblon/Epidermal growth factor receptor (Homo sapiens); assay: Binding affinity to CRBN/wild type EGFR in human OVCAR-8 cell lysate assessed as ternary complex formation by measuring CRBN pulldown at 1 uM pretreated with pictilisib for 2 hrs followed by compound addition measured after 16 hrs by EGFR antibody based co-immunoprecipitation assay; type: subcellular
[11] = biological target: T2, Protein cereblon/Epidermal growth factor receptor (Homo sapiens); assay: Binding affinity to CRBN/wild type EGFR in human NCI-H1299 cell lysate assessed as ternary complex formation by measuring CRBN pulldown at 1 uM pretreated with pictilisib for 2 hrs followed by compound addition measured after 16 hrs by EGFR antibody based co-immunoprecipitation assay; type: subcellular
[12] = biological target: T2, Protein cereblon/Epidermal growth factor receptor (Homo sapiens); assay: Binding affinity to CRBN/wild type EGFR in human OVCAR-8 cell lysate assessed as ternary complex formation by measuring EGFR pulldown at 1 uM pretreated with pictilisib for 2 hrs followed by compound addition measured after 16 hrs by CRBN antibody based co-immunoprecipitation assay; type: subcellular
[13] = biological target: T2, Protein cereblon/Epidermal growth factor receptor (Homo sapiens); assay: Binding affinity to CRBN/wild type EGFR in human NCI-H1299 cell lysate assessed as ternary complex formation by measuring EGFR pulldown at 1 uM pretreated with pictilisib for 2 hrs followed by compound addition measured after 16 hrs by CRBN antibody based co-immunoprecipitation assay; type: subcellular

Chains of the proteins cited; added tags and fusions are not shown.
UniProt P40337, whole entry, looked up: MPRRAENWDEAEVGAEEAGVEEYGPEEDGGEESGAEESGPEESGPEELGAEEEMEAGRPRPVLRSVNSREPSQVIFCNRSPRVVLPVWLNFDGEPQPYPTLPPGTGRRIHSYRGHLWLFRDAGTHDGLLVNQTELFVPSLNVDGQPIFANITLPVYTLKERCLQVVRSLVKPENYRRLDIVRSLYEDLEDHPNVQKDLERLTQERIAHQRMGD
UniProt Q96SW2, whole entry, looked up, stated change not applied: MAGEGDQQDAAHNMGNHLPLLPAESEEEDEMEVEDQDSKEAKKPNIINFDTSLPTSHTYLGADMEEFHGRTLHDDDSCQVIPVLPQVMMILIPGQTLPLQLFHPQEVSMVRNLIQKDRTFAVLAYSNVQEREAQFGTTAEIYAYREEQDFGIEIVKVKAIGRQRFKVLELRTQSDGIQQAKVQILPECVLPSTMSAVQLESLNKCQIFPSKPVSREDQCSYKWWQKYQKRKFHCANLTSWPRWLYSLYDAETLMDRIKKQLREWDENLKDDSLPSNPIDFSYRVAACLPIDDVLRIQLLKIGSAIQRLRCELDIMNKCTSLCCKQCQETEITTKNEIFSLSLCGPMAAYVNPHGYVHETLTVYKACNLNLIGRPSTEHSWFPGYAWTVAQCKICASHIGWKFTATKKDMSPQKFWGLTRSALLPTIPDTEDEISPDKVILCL

Measured: Activity

COc1cc2ncnc(Nc3ccc(F)c(Cl)c3)c2cc1OCCCN1CCN(C(=O)CCCCCCCCCC(=O)N[C@H](C(=O)N2C[C@H](O)C[C@H]2C(=O)NCc2ccc(-c3scnc3C)cc2)C(C)(C)C)CC1
active: [1] | [2] | [3] | [4] | [5] | [6] | [7]

COc1cc2ncnc(Nc3ccc(F)c(Cl)c3)c2cc1OCCCN1CCN(CCC(=O)NCCCCCCCCOc2cccc3c2C(=O)N(C2CCC(=O)NC2=O)C3)CC1 (stereo not drawn)
active: [8] | [9] | [10] | [11] | [12] | [13]
